The text below walks through data of US3994901A, “5-[1-Hydroxy-2-(s ubstituted-amino)]alkyl-8-hydroxy-3,4-dihydrocarbostyril derivatives” (Otsuka Pharmaceutical Company Limited, priority 1974, dated 1976).

One data set can be described thus: in vivo. The settings on record: rat, male rats (dd strain), fasted 12 hours.
A further data set has as its system male rats (dd strain). Conditions: p.o., *Literature values; cited from earlier work.

Take `CC(C)NCC(O)c1ccc(O)c(O)c1` (stereo not drawn) [Isoproterenol]: the LD50 (commonly the dose expected to kill half of the subjects tested) in the data set “in vivo” (iv, I.v.) was 112 mg/kg; in “in vivo” (po), 355 mg/kg. In addition, the “LD50 (50% lethal dose)” value in the data set with male rats (dd strain) is 2587 mg/kg.
